Test results from article PMC8165439, “Chymase Dependent Pathway of Angiotensin II Generation and Rapeseed Derived Peptides for Antihypertensive Treatment of Spontaneously Hypertensive Rats” (Frontiers in Pharmacology, 2021).

What was measured:
[1] = system: spontaneously hypertensive rats (SHR); experiment: Plasma and urine parameters during chronic treatment; type: in vivo, rat; conditions: mean ± SEM
Procedure: (§1) Systolic and diastolic blood pressure (SBP and DBP, respectively) and heart rate (HR) were measured in conscious unrestrained rats by telemetry technique, once a week for 24 h. 24 hour observations in metabolic cages (Tecniplast S. p.A. Buguggiate, Italy) were performed weekly. The diuresis, weight of feces, food and water intake were measured; urine and blood samples were collected on day 0, 7th and 14th, and were centrifuged at 1200 g (blood for 15 min and urine for 5 min), then the samples were stored at –80°C until analysis.
(§2) On day 0 all animals received saline (0.9% NaCl) and then, for 14 consecutive days, the substance tested. Chymostatin (CH, 2 mg/kg/day) was dissolved in DMSO and then diluted with PBS (final concentration of DMSO was 0.15%). Peptides RIY (7.5 mg/kg/day) and VWIS (12.5 mg/kg/day) were dissolved in saline (0.9% NaCl, S). The substances were administered through the femoral vein during 10 min in the volume of 0.5 ml to young SHR (infusion rate: 3 ml/h) and 1 ml to adult rats (infusion rate: 6 ml/h). Control rats received solvents (either DMSO or saline) in the same volume.
(§3) Urine volume was determined by gravimetric method. Sodium and potassium concentration in urine and plasma were measured by flame photometry (PFP7/C, Jenway Ltd, Stone, United Kingdom). Urine and plasma osmolality were measured by freezing point depression (Osmomat® 030 M, Gonotec, Berlin, Germany). These parameters were used to determine the excretion rates of total solutes (UosmV), sodium (UNaV) and potassium (UKV). Commercially available ELISA kits were used to measure nitric oxide metabolites (NOx, SunRed, Shanghai) and albumin (Albumin, ICL, Portland) concentration in urine. Excretion rate of NOx (UNOxV) and albumin (UAE) were calculated.

ACE = conditions: ref Marczak et al. (2003); cited from earlier work
[2] = system: spontaneously hypertensive rats (SHR); experiment: Metabolic parameters in metabolic cages during chronic treatment; type: in vivo, rat; conditions: mean ± SEM
Procedure: as §1, §2, §3

[3] = adult SHR (SHR-16), day 0 (baseline)
[4] = adult SHR (SHR-16), day 7 of daily iv CH 2, RIY 7.5, VWIS 12.5 mg/kg/day
[5] = adult SHR (SHR-16), day 7 of daily iv treatment
[6] = adult SHR (SHR-16), day 14 of daily iv CH 2, RIY 7.5, VWIS 12.5 mg/kg/day
[7] = adult SHR (SHR-16), day 14 of daily iv treatment
[8] = young SHR (SHR-6), day 0 (baseline), CH n=8-10, RIY n=5, VWIS n=5-6
[9] = young SHR (SHR-6), day 0 (baseline)
[10] = young SHR (SHR-6), day 7 of daily iv CH 2, RIY 7.5, VWIS 12.5 mg/kg/day
[11] = young SHR (SHR-6), day 7 of daily iv treatment
[12] = young SHR (SHR-6), day 14 of daily iv CH 2, RIY 7.5, VWIS 12.5 mg/kg/day
[13] = young SHR (SHR-6), day 14 of daily iv treatment

CC[C@H](C)[C@H](NC(=O)[C@@H](N)CCCNC(=N)N)C(=O)N[C@@H](Cc1ccc(O)cc1)C(=O)O [RIY, Arginine-Isoleucine-Tyrosine]
Plasma osmolality ([1]; adult SHR (SHR-16), day 0 (baseline), CH n=5-8, RIY n=5-6, VWIS n=5-6): 306±4 mOsm/l | Plasma K+ concentration [1, 3]: 3.67 ± 0.20 mmol/L | Plasma Na+ concentration [1, 3]: 121.8 ± 3.4 mmol/L | Potassium excretion [1, 3]: 0.93 ± 0.09 µmol/min | Sodium excretion [1, 3]: 1.03 ± 0.08 µmol/min | Total solute excretion [1, 3]: 10.38±1.82 µOsm/min | Plasma osmolality [1, 4]: 304±1 mOsm/l | Plasma K+ concentration [1, 5]: 3.81 ± 0.14 mmol/L | Plasma Na+ concentration [1, 5]: 128.8 ± 2.4 mmol/L | Potassium excretion [1, 5]: 0.85 ± 0.22 µmol/min | Sodium excretion [1, 5]: 0.68 ± 0.16 µmol/min | Total solute excretion [1, 5]: 10.41±1.87 µOsm/min | Plasma osmolality [1, 6]: 296±3 mOsm/l | Plasma K+ concentration [1, 7]: 3.23 ± 0.27 mmol/L | Plasma Na+ concentration [1, 7]: 131.3 ± 2.0 mmol/L | Potassium excretion [1, 7]: 1.12 ± 0.18 µmol/min | Sodium excretion [1, 7]: 0.86 ± 0.27 µmol/min | Total solute excretion [1, 7]: 9.67±1.41 µOsm/min | Plasma osmolality [1, 8]: 298±1 mOsm/l | Plasma K+ concentration [1, 9]: 4.43 ± 0.15 mmol/L | Potassium excretion [1, 9]: 0.72 ± 0.24 µmol/min | Sodium excretion [1, 9]: 0.63 ± 0.24 µmol/min | Total solute excretion [1, 9]: 4.84±1.13 µOsm/min | Plasma osmolality [1, 10]: 298±2 mOsm/l | Plasma K+ concentration [1, 11]: 4.54 ± 0.11 mmol/L | Plasma Na+ concentration [1, 11]: 129.6 ± 4.0 mmol/L | Potassium excretion [1, 11]: 0.65 ± 0.09 µmol/min | Sodium excretion [1, 11]: 0.64 ± 0.16 µmol/min | Total solute excretion [1, 11]: 4.85±1.11 µOsm/min | Plasma osmolality [1, 12]: 290±2 mOsm/l | Plasma K+ concentration [1, 13]: 4.39 ± 0.18 mmol/L | Plasma Na+ concentration [1, 13]: 124.2 ± 4.3 mmol/L | Potassium excretion [1, 13]: 0.71 ± 0.40 µmol/min | Sodium excretion [1, 13]: 0.68 ± 0.19 µmol/min | Total solute excretion [1, 13]: 6.44±2.35 µOsm/min | stability / conversion to dipeptide in the presence of ACE (ACE): more stable in the presence of ACE | Body weight ([2]; adult SHR (SHR-16), day 0 (baseline), CH n=8, RIY n=5-6, VWIS n=5-6): 299 ± 12 g | Diuresis [2, 3]: 6.4 ± 0.2 µL/min | Faeces [2, 3]: 10±1 g/24 h | Food intake [2, 3]: 20±2 g/24 h | Water intake [2, 3]: 28±2 g/24 h | Body weight [2, 4]: 309 ± 9 g | Diuresis [2, 5]: 8.5 ± 1.8 µL/min | Faeces [2, 5]: 11±1 g/24 h | Food intake [2, 5]: 22±2 g/24 h | Water intake [2, 5]: 35±2 g/24 h | Body weight [2, 6]: 326 ± 8 g | Diuresis [2, 7]: 10.4 ± 1.4 µL/min | Faeces [2, 7]: 13±1 g/24 h | Food intake [2, 7]: 21±1 g/24 h | Water intake [2, 7]: 37±3 g/24 h | Body weight [2, 8]: 112 ± 7 g | Diuresis [2, 9]: 5.3 ± 0.8 µL/min | Faeces [2, 9]: 11±1 g/24 h | Food intake [2, 9]: 16±1 g/24 h | Water intake [2, 9]: 23±2 g/24 h | Body weight [2, 10]: 149 ± 8 g | Diuresis [2, 11]: 9.0 ± 1.3 µL/min | Faeces [2, 11]: 16±1 g/24 h | Food intake [2, 11]: 19±1 g/24 h | Water intake [2, 11]: 26±4 g/24 h | Body weight [2, 12]: 185 ± 7 g | Diuresis [2, 13]: 9.4 ± 1.2 µL/min | Faeces [2, 13]: 15±1 g/24 h | Food intake [2, 13]: 21±1 g/24 h | Water intake [2, 13]: 33±3 g/24 h
